The target of this experiment is full-length human ATR protein (ATR/ATRIP) (Homo sapiens (Human), UniProt Q13535). The experiment is described as follows: Binding Assay ATR (TR-FRET, tracer A displacement). Particulars: read-out: ATR binding (tracer A) IC50, displacement of fluorescent tracer A from GST-ATR/ATRIP. The source says:
To determine of binding activity of the test compounds, full-length human ATR protein was expressed and purified together with ATRIP as described above. Furthermore, a fluorescently labelled compound (tracer A as described above) was used as a tracer molecule. Detection of the binding event of the tracer was achieved by time-resolved fluorescence energy transfer (TR-FRET). We used an anti-GST-Terbium antibody (CisBio) that binds to the GST-tag at the N-terminus of ATR-kinase. Excitation of Terbium with 337 nm light results in emission of fluorescent light with 545 nm. In case a tetrameric complex has formed (antiGST-Tb+GST-ATR+Strp2-ATRIP+tracer), part of the energy will be transferred from the Terbium to the fluorophore that itself emits light of 570 nm. […]
For the assay 50 nl of a 100-fold concentrated solution of the test compound in DMSO was pipetted into a black low volume 384 well microtiter plate (MTP, Greiner Bio-One, Frickenhausen, Germany). […] The measurement of the TR-FRET signal was performed in a standard HTRF-compatible MTP reader instrument (e.g. BMG Pherastar) by recording the fluorescence emissions at 545 nm and 570 nm after excitation at 337-350 nm. The ratio between emission at 570 nm divided by emission at 545 nm was calculated to give the well ratio. […] IC50 values were calculated by a 4 parameter fit using standard software (GraphPad prism or equivalent).
A general note: Time-resolved FRET reads energy transfer from a long-lived donor to a nearby acceptor.

Amino acid sequences for entries named in this document (tags omitted). Chains listed by the source or under a name are the forms on record and can include a tag or linker. Residues count along the entry.
UniProt Q13535, 1-2644 with tags or gaps limits assumed: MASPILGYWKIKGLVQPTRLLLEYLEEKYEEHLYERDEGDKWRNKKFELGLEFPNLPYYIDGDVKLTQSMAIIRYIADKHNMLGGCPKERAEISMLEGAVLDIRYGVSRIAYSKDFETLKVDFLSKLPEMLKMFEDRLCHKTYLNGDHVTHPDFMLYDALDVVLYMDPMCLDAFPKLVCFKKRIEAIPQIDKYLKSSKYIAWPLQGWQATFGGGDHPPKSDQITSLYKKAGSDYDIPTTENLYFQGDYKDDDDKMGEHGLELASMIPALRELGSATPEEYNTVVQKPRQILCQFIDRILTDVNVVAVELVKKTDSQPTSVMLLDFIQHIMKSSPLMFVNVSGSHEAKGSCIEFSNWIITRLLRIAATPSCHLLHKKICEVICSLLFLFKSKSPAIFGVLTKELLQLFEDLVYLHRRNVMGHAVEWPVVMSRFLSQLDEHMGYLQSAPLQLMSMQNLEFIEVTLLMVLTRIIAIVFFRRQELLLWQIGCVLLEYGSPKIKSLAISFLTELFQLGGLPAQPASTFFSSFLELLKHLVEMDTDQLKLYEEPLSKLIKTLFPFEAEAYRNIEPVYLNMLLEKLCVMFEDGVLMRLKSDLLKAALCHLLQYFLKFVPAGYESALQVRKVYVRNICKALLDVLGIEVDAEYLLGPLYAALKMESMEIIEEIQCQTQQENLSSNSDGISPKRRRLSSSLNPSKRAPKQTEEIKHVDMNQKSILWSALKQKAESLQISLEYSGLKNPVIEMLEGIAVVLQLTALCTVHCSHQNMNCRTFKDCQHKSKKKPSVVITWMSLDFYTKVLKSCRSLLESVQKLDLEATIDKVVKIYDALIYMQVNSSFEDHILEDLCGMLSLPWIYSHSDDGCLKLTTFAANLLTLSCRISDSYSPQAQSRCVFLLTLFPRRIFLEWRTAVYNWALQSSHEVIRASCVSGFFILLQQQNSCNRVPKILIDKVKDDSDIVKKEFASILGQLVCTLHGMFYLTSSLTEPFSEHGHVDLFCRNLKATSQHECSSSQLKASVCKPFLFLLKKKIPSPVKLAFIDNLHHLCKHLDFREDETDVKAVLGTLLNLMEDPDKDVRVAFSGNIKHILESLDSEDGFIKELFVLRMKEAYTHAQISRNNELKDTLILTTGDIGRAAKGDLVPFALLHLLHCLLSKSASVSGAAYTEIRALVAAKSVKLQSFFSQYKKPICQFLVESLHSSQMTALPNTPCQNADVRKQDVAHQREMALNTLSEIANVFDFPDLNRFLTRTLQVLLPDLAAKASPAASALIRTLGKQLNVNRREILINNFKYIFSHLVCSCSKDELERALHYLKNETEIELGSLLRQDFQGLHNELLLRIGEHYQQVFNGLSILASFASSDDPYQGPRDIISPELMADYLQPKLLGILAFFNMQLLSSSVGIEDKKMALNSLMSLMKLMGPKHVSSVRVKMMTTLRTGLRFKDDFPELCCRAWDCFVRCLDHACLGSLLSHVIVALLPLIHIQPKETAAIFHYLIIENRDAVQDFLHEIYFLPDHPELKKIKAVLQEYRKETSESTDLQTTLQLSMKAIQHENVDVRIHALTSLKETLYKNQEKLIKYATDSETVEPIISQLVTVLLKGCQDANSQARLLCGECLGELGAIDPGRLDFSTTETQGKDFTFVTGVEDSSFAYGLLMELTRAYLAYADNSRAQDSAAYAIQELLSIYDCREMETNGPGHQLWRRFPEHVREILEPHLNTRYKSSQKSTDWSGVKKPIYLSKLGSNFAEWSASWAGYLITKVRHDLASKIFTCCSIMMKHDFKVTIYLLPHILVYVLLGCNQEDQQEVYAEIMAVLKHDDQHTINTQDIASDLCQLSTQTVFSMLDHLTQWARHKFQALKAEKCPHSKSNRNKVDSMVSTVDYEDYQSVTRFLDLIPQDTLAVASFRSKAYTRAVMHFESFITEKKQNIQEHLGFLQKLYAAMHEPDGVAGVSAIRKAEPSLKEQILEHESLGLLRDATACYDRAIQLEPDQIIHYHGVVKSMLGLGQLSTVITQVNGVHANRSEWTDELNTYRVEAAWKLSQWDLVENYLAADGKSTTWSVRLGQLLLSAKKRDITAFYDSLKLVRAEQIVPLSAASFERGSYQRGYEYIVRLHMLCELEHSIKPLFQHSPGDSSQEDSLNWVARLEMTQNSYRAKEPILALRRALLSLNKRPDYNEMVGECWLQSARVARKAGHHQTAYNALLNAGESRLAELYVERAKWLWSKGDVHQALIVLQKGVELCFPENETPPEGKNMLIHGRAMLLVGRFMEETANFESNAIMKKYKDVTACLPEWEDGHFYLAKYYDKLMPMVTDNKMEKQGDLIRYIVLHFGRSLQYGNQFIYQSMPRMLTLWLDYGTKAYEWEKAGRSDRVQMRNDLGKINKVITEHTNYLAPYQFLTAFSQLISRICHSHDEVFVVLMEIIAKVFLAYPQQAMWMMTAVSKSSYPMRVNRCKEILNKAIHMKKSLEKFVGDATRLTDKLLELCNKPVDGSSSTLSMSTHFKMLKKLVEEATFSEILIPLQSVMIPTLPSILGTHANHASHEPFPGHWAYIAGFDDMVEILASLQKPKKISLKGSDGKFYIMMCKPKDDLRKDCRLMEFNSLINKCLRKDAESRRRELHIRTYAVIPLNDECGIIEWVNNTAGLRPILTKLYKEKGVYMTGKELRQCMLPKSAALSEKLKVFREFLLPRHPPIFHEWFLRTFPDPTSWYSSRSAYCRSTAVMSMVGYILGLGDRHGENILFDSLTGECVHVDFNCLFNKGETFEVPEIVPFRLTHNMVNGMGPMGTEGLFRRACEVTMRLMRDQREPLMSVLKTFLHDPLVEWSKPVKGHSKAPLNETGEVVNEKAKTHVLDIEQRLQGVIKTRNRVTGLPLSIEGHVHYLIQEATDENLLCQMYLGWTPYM
UniProt Q8WXE1, 1-791 with tags or gaps partner limits assumed: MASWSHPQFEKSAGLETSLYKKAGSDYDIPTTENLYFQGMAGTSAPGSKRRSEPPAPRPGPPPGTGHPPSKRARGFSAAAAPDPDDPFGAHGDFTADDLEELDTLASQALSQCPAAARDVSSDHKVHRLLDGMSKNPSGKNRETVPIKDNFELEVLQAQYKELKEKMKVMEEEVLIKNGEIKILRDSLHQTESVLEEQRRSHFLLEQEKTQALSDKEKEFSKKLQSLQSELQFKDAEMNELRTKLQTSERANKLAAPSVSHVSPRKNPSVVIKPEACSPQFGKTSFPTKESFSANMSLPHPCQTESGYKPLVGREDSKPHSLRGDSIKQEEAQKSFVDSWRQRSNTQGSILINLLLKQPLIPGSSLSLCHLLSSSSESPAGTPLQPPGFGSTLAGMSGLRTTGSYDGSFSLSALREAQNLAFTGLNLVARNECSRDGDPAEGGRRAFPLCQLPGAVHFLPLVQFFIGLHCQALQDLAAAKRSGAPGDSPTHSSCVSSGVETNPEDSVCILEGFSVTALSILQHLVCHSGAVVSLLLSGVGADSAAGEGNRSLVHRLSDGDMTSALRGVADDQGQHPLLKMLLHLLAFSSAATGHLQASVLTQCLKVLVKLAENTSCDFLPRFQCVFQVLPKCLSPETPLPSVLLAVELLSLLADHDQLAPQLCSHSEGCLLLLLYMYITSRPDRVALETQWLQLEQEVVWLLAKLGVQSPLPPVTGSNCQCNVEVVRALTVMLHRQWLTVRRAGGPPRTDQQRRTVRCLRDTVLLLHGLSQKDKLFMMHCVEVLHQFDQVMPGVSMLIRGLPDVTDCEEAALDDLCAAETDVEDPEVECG

pIC50: −log10 of the molar value.

Regarding `Cc1cnc(-c2ccn[nH]2)c2nc(N3CCOC[C@H]3C)cc(-c3cnc4ccccc4c3)c12`, the pIC50 is 7.47.
